{"source": "patent US20150093335A1", "about": "“CELL-TARGETED MAGNETIC NANO-MATERIAL AND BIOMEDICAL USES THEREOF” (Institute of Geology and Geophysics, Chinese Academy of …, priority 2012, published 2015)", "tested_on": "MDA-MB-231 tumor", "experiment": "In vivo near-infrared fluorescence imaging (tumor about 3 mm)", "parameters": "species or system nude mouse", "conditions": "3 h after tail vein injection", "description": "Human H-subunit magnetoferritin is labeled with near-infrared fluorescent stain Cy5.5 (that is, Cy5.5 is linked to human H-subunit magnetoferritin by covalent bonds), and thus becomes a tumor targeted fluorescent molecular probe. When MDA-MB-231 tumor grows to about 3 mm, human H-subunit magnetoferritins labeled with Cy5.5 are injected through tail vein, and then scanned with in vivo fluorescence imaging system CRI Metro™ to observe its relative in vivo distribution. FIG. 11 is the in vivo fluorescence image 3 h after human H-subunit magnetoferritins are injected."}
{"substance": "human H-subunit magnetoferritin labeled with Cy5.5", "values": [{"measurement": "in vivo fluorescence in the tumor area", "result": "relatively strong fluorescent intensity distributed in the tumor area"}]}
